Data: patent US6482837B1 (priority 1998, dated 2002)
Where a name gives a salt, the structure may show the parent alone.

Legend:
[1] = tested on: miniature swine bladder; conditions: in vivo
[2] = tested on: guinea pig bladder; conditions: in vivo
[3] = human, in vivo; cited from earlier work
[4] = in vivo; cited from earlier work
[5] = in vivo; cited from earlier work; remark: listed apart in the source

For CCN(CC)CC#CCOC(=O)C(O)(c1ccccc1)C1CCCCC1 (stereo not drawn) [Oxybutynin, (4-diethylamino)-2-butynyl-α-cyclohexyl-α-hydroxybenzeneacetate HCl], the “Body Temp increase ° C.” value [1] was 0 °C, the “Heart rate % increase” value [1] was 0% and the “effect of intravesical administration on micturition” value [1] was “increased duration of micturition”. For the same compound, the bladder volume [2] was “increase in volume”, the “fall in peak intravesical pressure” value [2] was “about 70%” and the peak intravesical pressure [2] was “significant fall”. For the same compound, the “Severe mouth dryness, subjects” value [3] was 84%, the “prolongation of the drug's action” value [4] was “about 3 fold” and the “mean bladder capacity increase” value [5] was 41%. The “mean intravesical pressure decrease” value [5] was 47%, the “patients who achieved continence” value [5] was “Five of 28” and the “patients with less wetting” value [5] was 62%.
